Data: US11891425B2, “Thioamide-modified peptides and uses thereof” (THE TRUSTEES OF THE UNIVERSITY OF PENNSYLVANIA, priority 2014, dated 2024)

Amino acid sequences for entries named in this document (tags omitted).
UniProt P27487, whole entry: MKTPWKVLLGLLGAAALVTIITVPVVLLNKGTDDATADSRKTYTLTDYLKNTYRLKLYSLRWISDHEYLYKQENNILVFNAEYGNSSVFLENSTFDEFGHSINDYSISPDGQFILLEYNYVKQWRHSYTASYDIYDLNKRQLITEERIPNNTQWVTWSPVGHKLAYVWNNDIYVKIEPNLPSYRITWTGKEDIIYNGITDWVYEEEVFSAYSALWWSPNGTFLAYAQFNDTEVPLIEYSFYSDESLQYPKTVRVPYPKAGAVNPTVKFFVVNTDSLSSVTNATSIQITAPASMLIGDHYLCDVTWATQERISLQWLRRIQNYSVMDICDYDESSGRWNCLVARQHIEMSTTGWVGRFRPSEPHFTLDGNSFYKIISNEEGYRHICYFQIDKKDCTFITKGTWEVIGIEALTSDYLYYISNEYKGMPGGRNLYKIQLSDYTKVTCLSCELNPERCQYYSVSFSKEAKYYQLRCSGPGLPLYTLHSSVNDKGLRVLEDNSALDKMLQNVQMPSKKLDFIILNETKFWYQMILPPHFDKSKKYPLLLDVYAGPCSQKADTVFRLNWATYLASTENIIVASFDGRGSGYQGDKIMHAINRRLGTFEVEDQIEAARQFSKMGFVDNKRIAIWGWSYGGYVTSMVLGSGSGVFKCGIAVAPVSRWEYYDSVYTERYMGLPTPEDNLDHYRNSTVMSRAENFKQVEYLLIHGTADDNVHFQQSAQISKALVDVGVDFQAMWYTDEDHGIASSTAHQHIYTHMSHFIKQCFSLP

What was measured:
DPP-4 = DPP-4 (Homo sapiens, UniProt P27487); experiment: in vitro degradation assay with DPP-4 (HPLC/MALDI MS, amount of intact peptide); settings: in presence of DPP-4
Method: For this study, purified peptides were incubated with DPP-4 in assay buffer for various time periods. The reactions were quenched, and the products analyzed by HPLC/MALDI MS to determine the amount of intact peptide.
Purified peptides are incubated with DPP-4 in assay buffer for various time periods. The reaction is quenched and the products are analyzed by HPLC to determine the amount of intact peptide. MALDI MS is used to determine the identities of HPLC peaks.

[1] = stability in buffer without DPP-4 (auto-degradation); type: physicochemical

- degradation by DPP-4 (in words) (DPP-4): not degraded by DPP-4
- half-life [1]: ~24 h
Structure (SMILES): CC[C@H](C)[C@H](NC(=O)[C@H](Cc1ccccc1)NC(=O)[C@H](CCC(=O)O)NC(=O)[C@H](CCCCN)NC(=O)[C@H](C)NC(=O)[C@H](C)NC(=O)[C@H](CCC(N)=O)NC(=O)CNC(=O)[C@H](CCC(=O)O)NC(=O)[C@H](CC(C)C)NC(=O)[C@H](Cc1ccc(O)cc1)NC(=O)[C@H](CO)NC(=O)[C@H](CO)NC(=O)[C@@H](NC(=O)[C@H](CC(=O)O)NC(=O)[C@H](CO)NC(=O)[C@@H](NC(=O)[C@H](Cc1ccccc1)NC(=O)[C@@H](NC(=O)CNC(=O)[C@H](CCC(=O)O)NC(=S)[C@H](C)NC(=O)[C@@H](N)Cc1ccccc1)[C@@H](C)O)[C@@H](C)O)C(C)C)C(=O)N[C@@H](C)C(=O)N[C@@H](Cc1c[nH]c2ccccc12)C(=O)N[C@@H](CC(C)C)C(=O)N[C@H](C(=O)N[C@@H](CCCCN)C(=O)NCC(=O)N[C@@H](CCCNC(=N)N)C(N)=O)C(C)C [GLP-1-F7A^s8]
